Key:
[1] = target: T1, Methylated-DNA--protein-cysteine methyltransferase (Homo sapiens, UniProt P16455); experiment: Inhibition of AGT activity to 50% of control rate in HT-29 cell extract; assay type: cell-free
T1 sequence (P16455 whole entry): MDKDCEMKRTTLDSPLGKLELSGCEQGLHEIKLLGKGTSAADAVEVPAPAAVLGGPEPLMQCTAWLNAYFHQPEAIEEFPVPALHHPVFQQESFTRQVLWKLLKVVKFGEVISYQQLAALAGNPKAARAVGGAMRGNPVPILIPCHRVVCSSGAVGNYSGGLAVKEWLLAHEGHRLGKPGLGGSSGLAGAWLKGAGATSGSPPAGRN
Procedure, shortened: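 HT29 cell extract AGT assay; IC50 is the inhibitor concentration reducing AGT activity to 50% of the control rate.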

[2] = target: T1, Methylated-DNA--protein-cysteine methyltransferase; experiment: concentration required to reduce AGT activity to 50% of control rate in intact HT-29 human colorectal carcinoma cells; assay type: cell-based
Procedure, shortened: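 HT29 cells were grown 3 days in EMEM with 10% FCS, then exposed for 4 h to inactivator in serum-free EMEM (DMSO final 1% or 0.1%). Cells were trypsinized, washed and counted by trypan blue; pellets of 10⁷ cells were homogenized in Tris-HCl pH 8.3 buffer with EDTA, DTT and 200 mM NaCl. AGT activity was assayed in the extracts, and the concentration depleting whole-cell AGT activity by 50% was calculated.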

## Nc1nc(OCc2ccccc2)c2[nH]cnc2n1 [6-O-BENZYLGUANINE]
[1]
  IC50: 180 nM
[2]
  IC50: 58 nM

Reference: ChEMBL document CHEMBL1133481, “Resistance-modifying agents. 8. Inhibition of O(6)-alkylguanine-DNA alkyltransferase by O(6)-alkenyl-, O(6)-cycloalkenyl-, and O(6)-(2-oxoalkyl)guanines and potentiation of temozolomide cytotoxicity in vitro by O(6)-(1-cyclopentenylmethyl)guanine” (J Med Chem, 2000)
